TDP1 block: TDP1 (human) enzyme inhibition; AID 485290; 0.28% of 350,000 active; Q9NUW8; recombinant TDP1, AlphaScreen DNA substrate cleavage; Potency, µM (highest dose often 130 µM), for the others: at the top dose activity change, negative = inhibition, hits mostly inhibitors; further: potency means the concentration at half of the fitted maximal effect; on the % scale 0 is the no-effect control and ±100 the full control effect; nearly all actives have a fitted effect of over 40% in size
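Tdp1 1 nM final; 15 min RT w/ cpd; substrate 15 nM, 5 min; beads 10 ug/ml, 10 min; AlphaScreen read. Neg ctrl: no enzyme.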
miR-21 reporter: raises the signal of a miR-21 reporter | HeLa miR-21 FLuc reporter, luciferase, 48 h | Potency, µM (highest dose often 38.3 µM), for inactives: at the highest dose reporter change, positive = more light | 340,000 tested, under 10 active | AID 2288; active = well fitted rising curve with a large enough effect; inconclusive = small, poorly fitted or top-dose-only effect; inactive = no such curve, though single readings can be large or run the other way;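 also: % of control where 0% means no effect; miR-21 action dims this reporter so a rising signal means less miR-21 action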
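HeLa miR-21-FLuc reporter line, endogenous miR-21; 2000 cells/well in DMEM/10% FBS; compound titration up to ~40uM final, 48 h, 37 degree Celsius; luciferase detection reagent, 15 min lysis, CCD luminescence.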
TDP1 cell CPT: DT40-hTDP1 cell growth loss with CPT; AID 686979; 12% of 420,000 active; chicken DT40 Tdp1-/-;hTDP1 cells + 20 nM CPT, ATP luminescence, 48 h; Potency, µM (doses to about 46.2 µM), for inactives: at the highest dose activity change, negative = growth inhibition, actives largely listed as inhibitors; further: potency means the concentration at half of the fitted maximal effect; on the % scale 0 is the no-effect control and ±100 the full control effect; nearly all actives have a fitted effect of over 55% in size
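Chicken DT40 Tdp1-/- cells stably complemented with human TDP1 were seeded at 400 cells/well in medium containing 20 nM camptothecin, exposed to pin-transferred compounds, and grown at 37 °C for at least 48 hr. Viability was read as ATP luminescence.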
uPA surface inh: inhibitors of cell surface uPA generation. Potency, µM (highest dose often 38.3 µM), without a hit: at the highest dose activity change, negative = inhibition, actives largely listed as inhibitors. cell surface uPA generation assay, qHTS. 0.31% of 330,000 active; active means well fitted inhibition curve with a large enough effect; inconclusive means small, poorly fitted or top-dose-only effect; inactive means no such curve, though single readings can be large or run the other way; tested in mouse RAW 264.7 cells; further: potency means the concentration at half of the fitted maximal effect; on the % scale 0 is the no-effect control and ±100 the full control effect; nearly all actives have a fitted effect of over 55% in size
TDP1 cell noCPT: qHTS for Inhibitors of human tyrosyl-DNA phosphodiesterase 1 (TDP1): qHTS in cells in absence of CPT; Potency, µM (doses to about 46.2 µM), for inactives: top-dose activity change, negative = growth inhibition, hits mostly inhibitors; DT40 Tdp1-/- hTDP1 cells, no CPT, ATP luminescence, 48 h; AID 686978, 2013; 15% of 420,000 active; further: potency means the concentration at half of the fitted maximal effect; on the % scale 0 is the no-effect control and ±100 the full control effect; nearly all actives have a fitted effect of over 55% in size
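Chicken DT40 Tdp1-/- cells complemented with human TDP1, screened without camptothecin (DMSO vehicle only), 400 cells/well. Compounds pin-transferred, cells incubated at 37 °C for at least 48 hr. Growth read as ATP-dependent luminescence (CellTiter-Glo, 30 min at RT).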
An asterisk follows results filed as active; u = inconclusive; x = not tested or not shown. The list is not random: actives were taken first. Their share in the collection is about 16%. Unless noted, the call rests on the fitted dose curve; in most records, active means well fitted curve in the direction sought with a large enough effect; inconclusive means small, poorly fitted or top-dose-only effect, or another doubt; inactive means no such curve, though single readings can be large; an effect the other way counts as inactive or inconclusive.

Screens in order: TDP1 block, miR-21 reporter, TDP1 cell CPT, uPA surface inh, TDP1 cell noCPT
- CCN1C(=O)[C@H]2[C@@H](c3ccc(-c4ccc(Cl)c(Cl)c4)cc3)N[C@@](C)(C(=O)OC)[C@H]2C1=O
 : 4.2%, x, 8.2µM*, 6.0%, 8.2µM*
- COC(=O)[C@]1(C)N[C@H](c2ccc(SC3CCCCC3)c(OC)c2)[C@@H]2C(=O)N(C)C(=O)[C@@H]21
 : -0.8%, x, u, 0.0%, 11.6µM*
- CCN1C(=O)[C@H]2[C@@H](c3ccc(-c4ccc(Cl)c(Cl)c4)c(OC)c3)N[C@@](C)(C(=O)OC)[C@H]2C1=O
 : -4.5%, x, 4.61µM*, 8.8%, 6.51µM*
- CCN1C(=O)[C@H]2[C@@H](c3ccc(-c4ccc5c(c4)OCO5)c(OC)c3)N[C@@](C)(C(=O)OC)[C@H]2C1=O
 : 1.1%, x, u, 1.3%, u
- CN(C)S(=O)(=O)c1cccc(NC(=O)CSc2cccc3cccnc23)c1
 : 13.2%, u, 3.66µM*, 2.5%, 3.26µM*
- CN(C)S(=O)(=O)c1cccc(NC(=O)CSc2nc3c(cc2C#N)C(=O)CC(C)(C)C3)c1
 : 4.4%, u, 9.2µM*, -11.1%, 7.31µM*
- O=C(Oc1ccccc1)N1CCC2(CC1)CCN(c1ccncc1)CC2
 : x, x, 14.6µM*, x, 14.6µM*
- COC(=O)N1CCC2(CC1)CCN(c1ccccn1)CC2
 : x, x, 17.9%, x, -23.7%
- O=C(Oc1ccccc1)N1CCC2(CC1)CCN(c1ccccn1)CC2
 : x, x, 16.4µM*, x, u
- COc1ccccc1NC(=O)N(C)C[C@H]1OCc2cnnn2CCCC(=O)N([C@H](C)CO)C[C@@H]1C
 : x, x, -23.4%, x, -15.6%
- CC(C)=CCC[C@H](C)C[C@@H]1Cc2[nH]c(=S)[nH]c(=O)c2[C@@H](c2ccc(F)cc2)O1
 : x, x, u, x, 25.9µM*
- CC(C)=CCC[C@H](C)CC1Cc2[nH]c(=S)[nH]c(=O)c2C(c2ccc(F)cc2)O1 (some centres undefined)
 : x, x, -4.1%, x, u
- CC(C)=CCC[C@H](C)C[C@@H]1CC2=C(C(=O)OC(C)(C)O2)[C@@H](c2ccc(F)cc2)O1
 : x, x, u, x, 16.4µM*
- Cc1cn2c(=O)cc(COc3cc(C)c(Cl)c(C)c3)nc2s1
 : 3.8%, 0.0%, 11.4%, x, 7.6%
- Cc1ccc(NC(=O)CSC(C)C(=O)OC(C)C(=O)NC2CCCCC2C)cc1 (centres undefined)
 : -0.1%, x, -12.3%, -11.7%, u
- CC(C)(C)C(=O)OCC1OC(n2cnc(C(N)=O)n2)C(O)C1O (centres undefined)
 : 2.1%, -1.6%, 16.4µM*, 14.2%, u
- Cc1ccc(NC(=O)N2CCc3c([nH]c4ccccc34)C2c2ccccc2F)c(Cl)c1 (centres undefined)
 : 8.5%, 21.8%, u, x, 23.1µM*
- COc1ccc(NC(=O)N2CCc3c([nH]c4ccc(OC)cc34)C2c2ccc(OC)cc2)cc1 (centres undefined)
 : 11.3%, 16.7%, u, x, 20.6µM*
- O=C(Nc1ccccc1)N1CCc2c([nH]c3ccccc23)C1C(F)(F)F (centres undefined)
 : 1.3%, 22.1%, 10.7%, 1.1%, u
- Cc1nonc1CC(=O)N1CCc2c([nH]c3ccccc23)C1c1ccccc1F (centres undefined)
 : 0.0%, 1.4%, u, -7.4%, u

Whole records, quoted from the list. Order of values: TDP1 block	miR-21 reporter	TDP1 cell CPT	uPA surface inh	TDP1 cell noCPT
CN(C)S(=O)(=O)c1cccc(NC(=O)CSc2cccc3cccnc23)c1 is listed with 13.2%	u	3.66µM*	2.5%	3.26µM*
CCN1C(=O)[C@H]2[C@@H](c3ccc(-c4ccc(Cl)c(Cl)c4)c(OC)c3)N[C@@](C)(C(=O)OC)[C@H]2C1=O is listed with -4.5%	x	4.61µM*	8.8%	6.51µM*

Later entries
Screens in order: TDP1 block, miR-21 reporter, TDP1 cell CPT, uPA surface inh, TDP1 cell noCPT
- CC1c2[nH]c3ccccc3c2CCN1C(=O)Nc1ccccc1 (centres undefined)
 : 0.7%, 23.0%, 23.1µM*, -12.7%, 23.1µM*
- COc1ccc(C(=O)N/N=C/C2CC=CCC2)cc1OC (centres undefined)
 : 0.0%, 11.9%, -4.0%, -1.2%, 0.9%
- CN(C)C(CNC(=O)c1ccc2c(=O)n(-c3ccccc3F)c(=S)[nH]c2c1)Cc1ccccc1 (centres undefined)
 : 3.0%, 3.1%, 25.9µM*, -6.5%, 18.4µM*
- O=C(NCCCN1CCCC1=O)c1ccc2c(=O)n(-c3ccccc3F)c(=S)[nH]c2c1
 : -2.6%, 1.5%, -16.2%, 1.5%, -21.0%

Molecules from the list above that have two or more sulfur atoms, in the order listed:
Screens in order: TDP1 block, miR-21 reporter, TDP1 cell CPT, uPA surface inh, TDP1 cell noCPT
- CN(C)S(=O)(=O)c1cccc(NC(=O)CSc2cccc3cccnc23)c1
 : 13.2%, u, 3.66µM*, 2.5%, 3.26µM*
- CN(C)S(=O)(=O)c1cccc(NC(=O)CSc2nc3c(cc2C#N)C(=O)CC(C)(C)C3)c1
 : 4.4%, u, 9.2µM*, -11.1%, 7.31µM*

High-throughput results deposited in PubChem by National Center for Advancing Translational Sciences (NCATS).
